Laboratory results taken from paper PMC3684443 (ACS chemical biology, 2012).

What was measured:
[1] = test system: HNSCC cell line 1483 xenograft tumors; test: Antitumor effect in HNSCC xenograft model, tumor volume; type: in vivo, Athymic nude mice; details: 2 weeks treatment, comparison between the three treated groups
HNSCC = HNSCC patients; cited from earlier work

For “cetuximab: FDA-approved EGFR-specific antibody that binds the extracellular ligand-binding domain of EGFR”, the “Response among erlotinib, cetuximab and EGFRAS-GPNA groups” value [1] is listed as “no significant difference” and the Clinical response rates (HNSCC) is listed as 10−13%.
